Potentiation data for 83 compounds are collected here from PubChem BioAssay AID504651 (National Center for Advancing Translational Sciences (NCATS), 2011).

Protein sequences, listed by entry. Tags and fused reporters are not part of them.
UniProt P21728, whole entry: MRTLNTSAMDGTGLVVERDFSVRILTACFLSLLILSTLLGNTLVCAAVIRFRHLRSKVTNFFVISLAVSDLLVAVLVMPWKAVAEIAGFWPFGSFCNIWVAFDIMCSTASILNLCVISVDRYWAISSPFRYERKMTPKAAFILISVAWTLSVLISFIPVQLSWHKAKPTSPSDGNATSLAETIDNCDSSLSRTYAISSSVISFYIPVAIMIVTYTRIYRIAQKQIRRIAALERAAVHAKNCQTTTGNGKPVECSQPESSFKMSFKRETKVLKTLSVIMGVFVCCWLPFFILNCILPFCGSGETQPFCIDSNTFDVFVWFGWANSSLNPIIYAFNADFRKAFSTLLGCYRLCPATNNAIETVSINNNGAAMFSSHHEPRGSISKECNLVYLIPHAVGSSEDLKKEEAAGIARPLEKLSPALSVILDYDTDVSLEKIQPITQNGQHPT

The entries are a selection whose mix differs from that of the whole data set. Some structures show a salt or complex split into parts, the way the source records it. Active and inactive are the calls of the source. No stated cut-off is given here; in the data, active means potentiation above about 30%; inactive means the rest.

The assay deals with D(1A) dopamine receptor (Homo sapiens) (UniProt P21728). Put plainly: Potentiators of Human D1 Dopamine Receptor: qHTS. Further: 0% is about no effect. Particulars: HEK293 TREx D1 cells, calcium flux, dopamine EC20 potentiation; at 10 µM; hits give high values. From the text:
Dopamine receptors (DARs) are involved in the etiology and/or therapy of a number of neuropsychiatric and endocrine disorders. For instance, all receptor-based antiparkinsonian drugs work via stimulating the D1 DAR subtype whereas all FDA-approved antipsychotic agents are antagonists of this receptor. […] There are three different types of allosteric modulators that we are seeking, two of which will stimulate or augment receptor signaling, allosteric agonists and potentiators, while the third, allosteric antagonists, will attenuate receptor signaling. The present primary screening assay measures compound potentiation of an EC20 dopamine response by tracking calcium flux in a […], inducible Hek293 Trex D1 cell line.
NIH Chemical Genomics Center [NCGC]
NIH Molecular Libraries Probe Centers Network [MLPCN]
Assay Submitter (PI): David Sibley
Freshly passaged cells are plated in 1536 well black, clear bottom plates at a density of 4000 cells/well in 3 ul of complete media containing 1x tetracycline inducer. After an overnight incubation at 30 C in 5% CO2, cells are loaded with 2 ul of the no wash Calcium Assay Kit (ABD Bioquest) and incubated at room temperature for 30 to 90 minutes. A 10 cycle (1 second/cycle) baseline measurement is taken and then the FDSS online 1536 pintool delivers 23 nl of compound library (as well as dopamine controls) to the plate. The plate is measured for kinetically at 1 cycle/sec for 180 seconds and is considered to be the agonist portion of the assay (eg, compounds which activate a positive calcium response during this portion are flagged as potential agonists). Following the 180 second read, 1 ul of an EC20 of dopamine is delivered by an onboard pipette head. Measurements are taken kinetically for an additional 180 seconds.
For orientation: In qHTS, concentration-response curves come from the screen itself.
For the compound `CCOC(=O)N1CCC(Nc2cccc(C)c2)CC1`, the potentiation is inactive: -2.75%. For `COc1cc(C(=O)NCC2(N(C)C)CCCCC2)ccc1OC(F)F` the value was inactive: -0.713%; for `Cc1ccc(OCC(C)C)c(CN(CCCl)CCCl)c1`, inactive: -1.5%. For `CCOc1ccc(C)cc1CN(CCCl)CCCl`, the potentiation was inactive: 2.05%. In the case of `O=C(NCC1(N2CCOCC2)CCCCC1)c1ccc(Cl)cc1`, the potentiation is inactive: 0.2%. For `CCCCOc1ccc(C(=O)NCC2(N3CCOCC3)CCCCC2)cc1` the value was inactive: -8.05%; for `O=C(NCC1(N2CCCCC2)CCCCC1)c1ccc(F)cc1`, inactive: -9.7%. The figure for `COc1ccc(NC2CCN(CCc3ccccc3)CC2)c(OC)c1` is inactive: 3.45%.

In the case of `CCOC(=O)N1CCC(Nc2ccc(F)cc2)CC1`, the potentiation is inactive: -0.6%. The figure for `COc1ccccc1C(=O)NCC1(N2CCOCC2)CCCCC1` is inactive: 0.1%.

As to `O=C(NCC1(N2CCOCC2)CCCCC1)c1cc2ccccc2o1`, the potentiation is inactive: -3.6%. For `O=C(NCC1(N2CCCCC2)CCCCC1)c1ccc(Cl)nc1` the value was inactive: -1.55%.

Turning to `Cc1cc(C)cc(N(C(=O)c2ccccc2)C2CCN(C(=O)OC(C)(C)C)CC2)c1`, the potentiation is inactive: 1.27%. The figure for `CCOC(=O)N1CCC(Nc2ccc(OC)cc2)CC1` is inactive: -4.65%.

As to `N#CC1(Nc2ccccc2)CCN(Cc2ccccc2)CC1`, the potentiation was inactive: 4.25%. As for `O=C(OC1CN2CCC1CC2)C1c2ccccc2Oc2ccccc21` (stereo not drawn), the potentiation is inactive: 0.105%. The figure for `COc1ccc(Cl)cc1C(=O)NCC1(N2CCOCC2)CCCCC1` is inactive: 2.32%. For the compound `O=C(NCC1(N2CCCCC2)CCCCC1)c1ccc(=O)[nH]c1`, the potentiation was inactive: -0.65%. For `O=C(NCC1(N2CCCCC2)CCCCC1)c1cccs1` the value was inactive: -3.5%; for `COc1ccc(C(=O)NCC2(N3CCCCC3)CCCCC2)cc1`, inactive: 0.95%. With `COc1ccc(C(=O)NCC2(N3CCCCC3)CCCCC2)c(OC)c1OC`, the potentiation was inactive: -4%. For `CC(C)(C)OC(=O)N1CCC(N(C(=O)c2ccccc2)c2ccc(F)cc2)CC1` the value was inactive: -3.1%; for `CSc1ccccc1C(=O)NCC1(N2CCCCC2)CCCCC1`, inactive: 0.25%; for `COc1ccc2c(c1O)-c1c(O)c(OC)cc3c1[C@H](C2)[N+](C)(C)CC3.O=[N+]([O-])c1cc([N+](=O)[O-])c([O-])c([N+](=O)[O-])c1[O-]`, inactive: 3.25%.

In the case of `O=C(OC1CN2CCC1CC2)c1ccc([N+](=O)[O-])cc1` (stereo not drawn), the potentiation was inactive: -0.35%. The figure for `CCCCOc1ccccc1C(=O)NCC1(N2CCOCC2)CCCCC1` is inactive: 1.95%; for `O=C(NCC1(N2CCOCC2)CCCCC1)c1ccccc1Br` it is inactive: 0.7%.

As for `CCCOc1ccc(C(=O)NCC2(N(C)C)CCCCC2)cc1OC`, the potentiation is inactive: 1.54%.

`COc1ccc(CN(CCCl)CCCl)cc1Cl`: the potentiation was inactive: -2.25%. For `O=[N+]([O-])c1cc([N+](=O)[O-])c(OC2CCCCC2O)c([N+](=O)[O-])c1` (stereo not drawn), the potentiation is inactive: -7.4%. The figure for `CN(C)c1cccc(C(=O)NCC2(N3CCCCC3)CCCCC2)c1` is inactive: -1.65%. For `CC(C)c1ccc(NC2CCN(C(=O)OC(C)(C)C)CC2)cc1` the value was inactive: -1.55%.

As for `COc1cc(OC)c(C(=O)NCC2(N(C)C)CCCCC2)cc1OC`, the potentiation was inactive: -3.95%. The figure for `CCCOc1cccc(C(=O)NCC2(N3CCOCC3)CCCCC2)c1` is inactive: 0.7%. Consider `O=C(NCC1(N2CCCCC2)CCCCC1)c1cccc(C(F)(F)F)c1`, for which the potentiation is inactive: -3.15%.

Take `O=[N+]([O-])c1cc([N+](=O)[O-])c(NCC2CCS(=O)(=O)C2)c([N+](=O)[O-])c1` (stereo not drawn): the potentiation is inactive: 2%. For `CN1CCN(CCOC(=O)C(O)(c2ccccc2)c2ccccc2)CC1` the value was inactive: -3.55%.

For `COc1ccc(NC2CCN(C(=O)OC(C)(C)C)CC2)cc1`, the potentiation is inactive: -4.25%.

On to `CC(C)c1ccc(C(=O)NCC2(N3CCOCC3)CCCCC2)cc1`, for which the potentiation was inactive: -3.2%.

As to `COc1cc(C(=O)NCC2(N3CCCCC3)CCCCC2)ccc1OC(F)F`, the potentiation is inactive: -3.85%. The figure for `O=C(NCC1(N2CCOCC2)CCCCC1)c1cc(=O)[nH]c2ccccc12` is inactive: 3.81%; for `O=C(NCC1(N2CCCCC2)CCCCC1)c1ccc(OC(F)F)cc1` it is inactive: -6.5%. On to `CSc1ccc(C(=O)NCC2(N3CCOCC3)CCCCC2)cc1`, for which the potentiation is inactive: 0.55%. The figure for `CCOc1ccc(C(=O)NCC2(N3CCOCC3)CCCCC2)cc1` is inactive: 0.95%.

As to `O=C(NCC1(N2CCCCC2)CCCCC1)c1cccc([N+](=O)[O-])c1`, the potentiation is inactive: -1.55%. `CCN1CCC(Nc2ccc(Cl)cc2)CC1`: the potentiation is inactive: -1.5%. The figure for `N#CC1(Nc2ccccc2)CCN(CCc2ccccc2)CC1` is inactive: -3.05%.

As to `c1ccc(CN2CCC(Nc3ccccc3)CC2)cc1`, the potentiation is inactive: -7.65%. For `CCCN1CCC(Nc2cc(OC)cc(OC)c2)CC1` the value was inactive: -1.3%.

Regarding `O=C(NCC1(N2CCOCC2)CCCCC1)c1ccccc1`, the potentiation was inactive: 0.3%.

`CN(C)C1(CNC(=O)c2cccc(C#N)c2)CCCCC1`: the potentiation was inactive: 1.7%. The figure for `O=C(NCC1(N2CCOCC2)CCCCC1)c1ccc([N+](=O)[O-])cc1` is inactive: -0.75%. In the case of `CC(C)(C)OC(=O)N1CCC(N(C(=O)c2ccccc2)c2ccc(Cl)cc2)CC1`, the potentiation is inactive: -1.45%.

In the case of `N#Cc1ccc(C(=O)NCC2(N3CCCCC3)CCCCC2)cc1`, the potentiation is inactive: -7.2%. On to `O=C(NCC1(N2CCOCC2)CCCCC1)c1ccccc1[N+](=O)[O-]`, for which the potentiation was inactive: 2.55%. Take `CCOC(=O)C(CC)C1=NC(C)(C)Cc2ccccc21.O=[N+]([O-])c1cc([N+](=O)[O-])c(O)c([N+](=O)[O-])c1` (stereo not drawn): the potentiation was inactive: -3.7%. For `N/C(=N\O)c1c(N)no[n+]1[O-]` the value was inactive: -8.4%. For `CCOC(=O)N1CCC(Nc2ccc(C)cc2)CC1` the value was inactive: -5.9%; for `CCc1cc(C(=O)NCC2(N3CCCCC3)CCCCC2)sc1C`, inactive: -1.55%; for `O=C(OC1CN2CCC1CC2)C1c2ccccc2C=Cc2ccccc21` (stereo not drawn), inactive: -8.25%. Consider `O=C(O)c1cccc(Nc2c([N+](=O)[O-])cc([N+](=O)[O-])cc2[N+](=O)[O-])c1`, for which the potentiation is inactive: -1.25%. For `O=C(NCC1(N2CCOCC2)CCCCC1)c1cc(Br)ccc1Cl` the value was inactive: 1.95%; for `COc1ccc(C(=O)NCC2(N3CCOCC3)CCCCC2)cc1OC`, inactive: -1.8%. The figure for `CCC(CO)(C(=O)OC1CN2CCC1CC2)c1ccccc1` (stereo not drawn) is inactive: 5.21%. As for `COc1cc(C(=O)NCC2(N3CCOCC3)CCCCC2)cc(OC)c1OC`, the potentiation was inactive: 0.35%.

Turning to `COc1cc(OC)cc(C(=O)NCC2(N3CCOCC3)CCCCC2)c1`, the potentiation was inactive: 4.08%. Consider `COc1cccc(C(=O)N(c2cc(C)cc(C)c2)C2CCN(C(=O)OC(C)(C)C)CC2)c1`, for which the potentiation is inactive: 0.95%. Regarding `CCCOc1ccc(C)cc1CN(CCCl)CCCl`, the potentiation was inactive: 1.5%. The figure for `CN1CCC(Nc2ccc(Cl)cc2)CC1` is inactive: -6%; for `CCOc1ncccc1C(=O)NCC1(N2CCOCC2)CCCCC1` it is inactive: 1.25%; for `CN1CCC(Nc2ccc(F)c(Cl)c2)CC1` it is inactive: -6.5%. The figure for `CCCOc1ccc(C(=O)NCC2(N(C)C)CCCCC2)cc1` is inactive: -0.65%; for `CC(C)(C)OC(=O)N1CCC(Nc2ccccc2)CC1` it is inactive: -4%. The figure for `O=C(O)C1(Nc2ccccc2)CCN(Cc2ccccc2)CC1` is inactive: 5.55%; for `CCN1CCC(Nc2cccc(F)c2)CC1` it is inactive: -2%.

For `O=C(NCC1(N2CCCCC2)CCCCC1)c1ccco1`, the potentiation is inactive: -4.65%. Regarding `CC(C)(C)c1ccc(C(=O)NCC2(N3CCOCC3)CCCCC2)cc1`, the potentiation was inactive: 1.3%. The figure for `CN(C)c1ccc(C(=O)NCC2(N3CCCCC3)CCCCC2)cc1` is inactive: -1.3%; for `Cc1ccccc1C(=O)NCC1(N(C)C)CCCCC1` it is inactive: 1.75%. The figure for `COc1cc(OC)cc(C(=O)NCC2(N3CCCCC3)CCCCC2)c1` is inactive: 2.55%.

Regarding `CN(C)C1(CNC(=O)c2ccc(C(C)(C)C)cc2)CCCCC1`, the potentiation was inactive: -1.4%.

For `Cc1ccc(C(=O)NCC2(N3CCCCC3)CCCCC2)o1`, the potentiation is inactive: 2.6%. As to `Fc1ccccc1NC1CCN(Cc2ccccc2)CC1`, the potentiation was inactive: -8.73%.
